# From PubChem
# Most compounds without a hit are left out; they make up all but 2.2% or so of the library.
# FGF22 binding-1: binders of human FGF22 protein, primary screen, FGF22 synaptogenesis inhibitor project, biophysical, thermal shift, single point; Fibroblast growth factor 22 (Homo sapiens), Q9HCT0; activity (Tm shift, normalised), % at 9.99 µM; recombinant FGF22 thermal shift, SYPRO orange fluorescence; percent of sucrose octasulfate shift, DMSO zero; actives 1.5% (n = 340,000);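 active = mean Tm shift, scaled 0 neutral to 100 positive control, at about 1.3% or above, every replicate too, limit read from the data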
# S100A4 inh HTS: inhibitors of S100A4-myosin IIA peptide binding, primary screen, biochemical, fluorescence polarization, TAMRA-MyoIIA peptide; inhibition, % at 10.7 µM; actives 0.14% (n = 360,000);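 active = mean inhibition of at least 70% across replicates, with every replicate also reaching that level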
#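 Material: S100A4 monomer (human). Medium: Calcium-containing HEPES buffer, pH 7.2. Probe or stimulus: labelled myosin peptide probe, 5 nM. Compound dosing: one concentration per compound. Timing: polarization read 5 min after assay mix addition, stable 5–60 min. Benchmarks: DMSO as neutral control, TFP as positive control.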
# ERp5 block: inhibitors of ERp5-driven insulin aggregation, primary screen, biochemical, turbidity, absorbance 650 nm, single point; 90 min; AID 651711, 2012; actives 0.05% (n = 350,000); Protein disulfide-isomerase A6 (Homo sapiens), Q15084; inhibition, % at 9.99 µM;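 active = mean replicate inhibition above about 25%, with every replicate also reaching it, limit read from the data, passing the limit was not always enough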
# UUG fidelity: alters start codon recognition fidelity in yeast. S. cerevisiae UUG-firefly luciferase reporter, luminescence/redox ratio. activity score, % at 18.7 µM. 0.13% of 350,000 active. AID 602363;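 active = replicate mean at a twofold rise or more, about +100% in these data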;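 also: firefly luciferase made from a UUG start codon reports start codon fidelity; reporter light over untreated wells divided by growth signal over untreated wells; some hits fall short of that in this replicate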
# PDI inh: inhibitors of human PDI, primary screen, biochemical, turbidity, single point, plate reader; Protein disulfide-isomerase (Homo sapiens), P07237; actives 0.052% (n = 350,000); inhibition, % at 10 µM; PDI insulin aggregation turbidity, A650, 90 min;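 active = mean inhibition across replicates of 30% or more, whatever share of single replicates reach that level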
# SIRT5 block: SIRT5 desuccinylase inhibitors, primary screen, biochemical, fluorescence imaging, single point, set 5. NAD-dependent protein deacylase sirtuin-5, mitochondrial (Homo sapiens), Q9NXA8. Purified SirT5, succinyl-peptide AMC, trypsin-coupled fluorescence. inhibition, % at 15 µM. actives 1.1% (n = 330,000); in the data active = inhibition above about 15%
# FGF22 binding-2: binders of human FGF22 protein, dose response, FGF22 synaptogenesis inhibitor project, biophysical, thermal shift, cherry-pick retest | shares compounds with FGF22 binding-1 | recombinant FGF22 thermal shift, SYPRO orange fluorescence | thermal shift activity, °C (ΔTm) at 38 µM | actives 2% (n = 1,000);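 active = fitted rise in melting shift crosses a set limit at or below the top valid dose tested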
# FGF22 TSA DP: binders of human FGF22 protein, dose response, FGF22 synaptogenesis inhibitor project, biophysical, thermal shift, dry powder; shares compounds with FGF22 binding-1; Thermal shift assay, SYPRO orange, melting temperature shift; Tm shift (activity), % at 38 µM; 50 tested, under 10 active; AID 743017, 2013;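 active = compounds whose fitted dose curve of melting temperature shift rises past a set threshold within the tested doses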
# SYPRO no-protein: compound-only thermal shift signal without protein, dose response, artefact control for FGF22 binder project, biochemical, cherry-picked samples, RT-PCR instrument; AID 743019, 2013; shares compounds with FGF22 binding-1; AC50, µM (highest dose often 38 µM); actives 2% (n = 1,000); compound-only SYPRO orange thermal shift counter-screen, no protein;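 active = rising signal whose fitted curve reaches the 0.54 level within the top valid dose, showing a melting point, actives reach about 13 µM in these data; inactive = the rest, including activity in the opposite direction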; note: value is where the raw curve crosses a fixed level and not half-maximal
# Numbers without * were called inactive; i = inactive; x = not tested or not shown; ! = a repeat was not active; [ ] = dose if it differs, or a comment.
SMILES,FGF22 binding-1,S100A4 inh HTS,ERp5 block,UUG fidelity,PDI inh,SIRT5 block,FGF22 binding-2,SYPRO no-protein,others
O=C(N/N=C/c1ccc(-c2cccc([N+](=O)[O-])c2)o1)c1ccccc1O,0,10,5,x,-20,2,x,x,
O=C(N/N=C/c1ccc(-c2cccc([N+](=O)[O-])c2)o1)c1ccc([N+](=O)[O-])cc1,1.6*,0,8,x,-4,-4,-0.096,i,
CCCC#Cc1ccc2c(c1)O[C@H](CN(C)C(C)=O)[C@@H](C)CN([C@@H](C)CO)S2(=O)=O,1.5*,0,-4,23,x,3,0.03,i,
C[C@@H]1CN([C@H](C)CO)S(=O)(=O)c2ccc(C#CCN(C)C)cc2O[C@@H]1CN(C)Cc1ccccc1F,4.7*!,-5,5,4,13,-2,0.15,i,
C[C@H](O)C#Cc1ccc2c(c1)O[C@H](CN(C)C(=O)Cc1ccccn1)[C@@H](C)CN([C@H](C)CO)S2(=O)=O,1.4*,4,-6,-5,x,-1,-0.082,i,
C[C@@H]1CN([C@H](C)CO)S(=O)(=O)c2ccc(C#CC3CC3)cc2O[C@H]1CN(C)C(=O)c1ccncc1,1.4*,-37,-4,27,x,7,0.024,i,
COCC(=O)N(C)C[C@@H]1Oc2cc(C#C[C@H](C)O)ccc2S(=O)(=O)N([C@@H](C)CO)C[C@H]1C,36*,3,1,9,x,0,0.021[42 µM],i,
Cc1ccccc1S(=O)(=O)NCC[C@H]1CC[C@H](NC(=O)Nc2cccc(Cl)c2)[C@H](CO)O1,0,-1,2,-5,x,-3,x,x,
CC(=O)Oc1ccc(C(=O)Nc2ccccc2C(=O)N2CCCC2)cc1,0,-2,-7,-3,2,-26,x,x,
CC(=O)Oc1ccc(C(=O)Nc2ccccc2C(=O)N2CCCCC2)cc1,1.8*,7,2,-8,-1,1,0.15,i,
COc1ccc(-c2csc(NC(=O)CN3C(=O)C4CCCCC4C3=O)n2)c(OC)c1 (stereo not drawn),1.6*,-1,-1,-4,4,1,-1.6,10µM*,
CC(C)NC(=O)N1C[C@@H]2[C@H](c3ccccc31)[C@@H](CO)N2Cc1ccccn1,15*,-5,7,-10,x,1,-0.052[42 µM],i,
CC(C)NC(=O)N1C[C@@H]2[C@H](c3ccccc31)[C@H](CO)N2Cc1ccccn1,x,x,x,-39,x,x,x,x,
CCCNC(=O)N1C[C@@H]2[C@H](c3ccccc31)[C@H](CO)N2Cc1ccc(F)cc1,1.3*,1,-1,4,x,3,0.051,i,
C[C@H](CO)N1C[C@H](C)[C@@H](CN(C)Cc2cccnc2)Oc2ncc(C#CC3(O)CCCC3)cc2C1=O,0,-2,1,-1,x,-2,x,x,
Cc1nc2ccc(NC(=O)c3cc(S(=O)(=O)N4CCOCC4)ccc3C)cc2s1,x,x,x,0,5,x,x,x,
CCOc1ccc(NC(=O)c2cccc(-n3cccc3)c2)cc1S(=O)(=O)N1CCOCC1,2.3*,4,8,-10,-3,-32,-0.15,i,
Cc1nc2ccc(NC(=O)c3ccc(C)c(S(=O)(=O)N4CCOCC4)c3)cc2s1,1.6*,-16,8,5,1,1,0.043,i,
C[C@@H]1CN([C@H](C)CO)S(=O)(=O)c2ccc(-c3cccnc3)cc2O[C@@H]1CN(C)C(=O)NC1CCCCC1,0,2,-3,4,x,-4,x,x,
C[C@@H]1CN([C@H](C)CO)C(=O)c2cc(NS(=O)(=O)c3cn(C)cn3)ccc2O[C@@H](C)CCCCO[C@@H]1CN(C)S(=O)(=O)c1ccccc1,-1,-7,2,5,x,2,x,x,
CC(=O)n1cc([C@@H]2C=C(C(N)=O)O[C@H](OCCCCO)C2)c2ccccc21,0,3,1,-6,x,-3,x,x,
Nc1nc(O)c(Sc2ccccc2[N+](=O)[O-])c(=O)[nH]1,1.9*,2,1,-20,10,-6,0.026,i,
O=C(C[C@H]1C=C[C@@H](NC(=O)Cc2cccnc2)[C@@H](CO)O1)Nc1ccccc1,0,15,3,x,x,-1,x,x,
CCN(CC)c1ccc2cc(S(=O)(=O)c3ccc(Cl)cc3)c(=O)oc2c1,24*,-6,-5,-20,-4,x,-0.14,i,
CCCCCCc1cc2cc(S(=O)(=O)c3ccc(Cl)cc3)c(=O)oc2cc1O,0,-9,-8,-16,-7,x,x,x,

# The last five compounds of the section above are carried over, then new ones follow.
SMILES,FGF22 binding-1,S100A4 inh HTS,ERp5 block,UUG fidelity,PDI inh,SIRT5 block,FGF22 binding-2,SYPRO no-protein,others
CC(=O)n1cc([C@@H]2C=C(C(N)=O)O[C@H](OCCCCO)C2)c2ccccc21,0,3,1,-6,x,-3,x,x,
Nc1nc(O)c(Sc2ccccc2[N+](=O)[O-])c(=O)[nH]1,1.9*,2,1,-20,10,-6,0.026,i,
O=C(C[C@H]1C=C[C@@H](NC(=O)Cc2cccnc2)[C@@H](CO)O1)Nc1ccccc1,0,15,3,x,x,-1,x,x,
CCN(CC)c1ccc2cc(S(=O)(=O)c3ccc(Cl)cc3)c(=O)oc2c1,24*,-6,-5,-20,-4,x,-0.14,i,
CCCCCCc1cc2cc(S(=O)(=O)c3ccc(Cl)cc3)c(=O)oc2cc1O,0,-9,-8,-16,-7,x,x,x,
COc1ccc(/C=N/NC(=O)c2nnn(-c3nonc3N)c2CN(C)c2ccccc2)cc1,0,-2,5,-10,-1,1,x,x,
CN(Cc1c(C(=O)N/N=C/c2ccc(O)cc2)nnn1-c1nonc1N)c1ccccc1,1.9*,2,5,-17,6,6,-0.027,i,FGF22 TSA DP=0
CC(C)c1c(C(=O)N/N=C/c2c[nH]c3ccccc23)nnn1-c1nonc1N,2.3*,3,-1,-7,-1,6,x,i,FGF22 TSA DP=1
CC(C)c1c(C(=O)N/N=C/c2cccc3ccccc23)nnn1-c1nonc1N,0,0,3,-13,7,-2,x,x,
CC=Cc1ccc2n(c1=O)C[C@@H]1[C@@H](CO)[C@H](C(=O)N[C@@H](C)c3ccccc3)N(C)[C@H]21 (mixture of isomers),0,0,1,x,x,-1,x,x,
O=C(Nc1cccnc1)c1ccc(NS(=O)(=O)c2cccc([N+](=O)[O-])c2)cc1,1.8*,1,-2,x,-3,3,-0.14,i,
CCOC(=O)N1CCN(C(=O)CCCCCn2c(=S)[nH]c3ccsc3c2=O)CC1,1.4*,2,-2,x,5,-2,-0.14,i,
CCOC(=O)N1CCN(C(=O)CCCn2c(=S)[nH]c3ccsc3c2=O)CC1,0,-6,1,x,-1,4,x,x,
